From paper PMC7575681 (EJNMMI Research, 2020)
Like-named read-outs stand apart in the source and are kept apart here. Marks after values point to notes of the source that are not given here.

Columns and labels:
[1] = final product solution
[2] = for excretion rate: decay-correction to injection time
[3] = final product solution; remark: listed apart in the source
[4] = ICR female mice
[5] = ICR mice urine, about 85 min, HPLC

For ^18F-deoxy-thiamine, the Bacteria test [1] was “Negative”, the “radioactivity in collected urine, of total injected radioactivity” value ([2]; ICR mice (n = 3), about 85 min after injection, decay-correction, mean ± SEM) was 34.16 ± 3.84% and the “RCP of renal excreted tracer” value [2, 5] was 94.53 ± 0.81%. For the same substance, the “unknown trace substance ahead of the tracer in urine” value [2, 5] was 3.30 ± 0.60 % in RCP, the “share in urine metabolized to more polar compounds” value ([2]; ICR mice urine, after 85 min in vivo) was 3.37% and the “percentage of intact tracer (prototype form) in urine” value ([2]; ICR mice urine, within 85 min after vein injection) was 96.63%. The excretion rate ([2]; ICR mouse 1, 85 mins) was 35.99%, the “renal excreted radioactivity 85 mins after injection” value (from here on “renal excreted radioactivity 85 mins”) ([2]; ICR mouse 1, injected 7.74 MBq) was 2.79 MBq and the excretion rate ([2]; ICR mouse 2, 85 mins) was 26.78%. The “renal excreted radioactivity 85 mins” value ([2]; ICR mouse 2, injected 13.71 MBq) was 3.67 MBq, the excretion rate ([2]; ICR mouse 3, 85 mins) was 39.70% and the “renal excreted radioactivity 85 mins” value ([2]; ICR mouse 3, injected 16.11 MBq) was 6.39 MBq. The Endotoxin test [3] was “Negative”, the biodistribution ([4]; blood, 5 min) was 3.87±0.51 IA%/g and the biodistribution ([4]; blood, 15 min) was 1.59±0.42 IA%/g. The biodistribution ([4]; blood, 30 min) was 0.89±0.12 IA%/g, the biodistribution ([4]; blood, 60 min) was 0.52±0.05 IA%/g and the biodistribution ([4]; blood, 120 min) was 0.39±0.07 IA%/g. It also gave a biodistribution ([4]; blood, 240 min) of 0.16±0.01 IA%/g, a biodistribution ([4]; brain, 5 min) of 1.62±0.35 IA%/g and a biodistribution ([4]; brain, 15 min) of 1.18±0.29 IA%/g. For the same substance, the biodistribution ([4]; brain, 30 min) was 0.97±0.24 IA%/g, the biodistribution ([4]; brain, 60 min) was 0.72±0.06 IA%/g and the biodistribution ([4]; brain, 120 min) was 0.52±0.06 IA%/g. For the same substance, the biodistribution ([4]; brain, 240 min) was 0.14±0.01 IA%/g, the biodistribution ([4]; duodenum, 5 min, n=2) was 23.89±14.71^a IA%/g and the biodistribution ([4]; duodenum, 15 min) was 10.23±3.09 IA%/g. The biodistribution ([4]; duodenum, 30 min) was 8.73±3.97 IA%/g, the biodistribution ([4]; duodenum, 60 min) was 6.44±1.61 IA%/g and the biodistribution ([4]; duodenum, 120 min) was 2.90±0.31 IA%/g. For the same substance, the biodistribution ([4]; duodenum, 240 min) was 2.01±0.37 IA%/g, the biodistribution ([4]; fat, 5 min) was 1.98±0.73 IA%/g and the biodistribution ([4]; fat, 15 min) was 0.97±0.04 IA%/g. The biodistribution ([4]; fat, 30 min) was 0.44±0.07 IA%/g, the biodistribution ([4]; fat, 60 min) was 0.35±0.03 IA%/g and the biodistribution ([4]; fat, 120 min) was 0.24±0.02 IA%/g. The biodistribution ([4]; fat, 240 min) was 0.21±0.03 IA%/g, the biodistribution ([4]; fumur, 5 min) was 4.49±1.07 IA%/g and the biodistribution ([4]; fumur, 15 min) was 2.97±0.82 IA%/g. For the same substance, the biodistribution ([4]; fumur, 30 min) was 2.68±0.80 IA%/g, the biodistribution ([4]; fumur, 60 min) was 4.82±0.79 IA%/g and the biodistribution ([4]; fumur, 120 min) was 2.16±0.37 IA%/g. It also gave a biodistribution ([4]; fumur, 240 min) of 2.06±0.07 IA%/g, a biodistribution ([4]; heart, 5 min) of 3.98±0.92 IA%/g and a biodistribution ([4]; heart, 15 min) of 1.46±0.36 IA%/g. The biodistribution ([4]; heart, 30 min) was 0.89±0.18 IA%/g, the biodistribution ([4]; heart, 60 min) was 0.48±0.01 IA%/g and the biodistribution ([4]; heart, 120 min) was 0.36±0.07 IA%/g. For the same substance, the biodistribution ([4]; heart, 240 min) was 0.16±0.02 IA%/g, the biodistribution ([4]; kidney, 5 min, n=2) was 42.35±2.82^a IA%/g and the biodistribution ([4]; kidney, 15 min) was 8.47±1.56 IA%/g. The biodistribution ([4]; kidney, 30 min) was 6.18±1.18 IA%/g, the biodistribution ([4]; kidney, 60 min) was 2.09±0.24 IA%/g and the biodistribution ([4]; kidney, 120 min) was 1.67±0.63 IA%/g. For the same substance, the biodistribution ([4]; kidney, 240 min) was 0.50±0.22 IA%/g, the biodistribution ([4]; liver, 5 min, n=2) was 17.60±6.41^a IA%/g and the biodistribution ([4]; liver, 15 min) was 8.33±1.96 IA%/g. The biodistribution ([4]; liver, 30 min) was 4.09±0.82 IA%/g, the biodistribution ([4]; liver, 60 min) was 2.00±0.07 IA%/g and the biodistribution ([4]; liver, 120 min) was 1.59±0.49 IA%/g. The biodistribution ([4]; liver, 240 min) was 0.42±0.08 IA%/g, the biodistribution ([4]; lung, 5 min, n=2) was 9.33±3.12^a IA%/g and the biodistribution ([4]; lung, 15 min) was 3.34±0.93 IA%/g. The biodistribution ([4]; lung, 30 min) was 2.76±0.33 IA%/g, the biodistribution ([4]; lung, 60 min) was 1.89±0.10 IA%/g and the biodistribution ([4]; lung, 120 min) was 1.31±0.39 IA%/g. For the same substance, the biodistribution ([4]; lung, 240 min) was 0.58±0.09 IA%/g, the biodistribution ([4]; muscle, 5 min) was 4.80±1.53 IA%/g and the biodistribution ([4]; muscle, 15 min) was 1.92±0.28 IA%/g. It also gave a biodistribution ([4]; muscle, 30 min) of 1.55±0.47 IA%/g, a biodistribution ([4]; muscle, 60 min) of 1.43±0.22 IA%/g and a biodistribution ([4]; muscle, 120 min) of 0.80±0.17 IA%/g. The biodistribution ([4]; muscle, 240 min) was 0.71±0.28 IA%/g, the biodistribution ([4]; ovary, 5 min, n=2) was 4.92±1.44^a IA%/g and the biodistribution ([4]; ovary, 15 min) was 2.78±0.52 IA%/g. It also gave a biodistribution ([4]; ovary, 30 min) of 2.88±1.26 IA%/g, a biodistribution ([4]; ovary, 60 min) of 1.29±0.19 IA%/g and a biodistribution ([4]; ovary, 120 min) of 0.84±0.28 IA%/g. It also gave a biodistribution ([4]; ovary, 240 min) of 0.30±0.04 IA%/g, a biodistribution ([4]; pancreas, 5 min) of 10.46±3.61 IA%/g and a biodistribution ([4]; pancreas, 15 min) of 3.86±0.91 IA%/g. The biodistribution ([4]; pancreas, 30 min) was 2.58±0.77 IA%/g, the biodistribution ([4]; pancreas, 60 min) was 1.22±0.09 IA%/g and the biodistribution ([4]; pancreas, 120 min) was 0.83±0.26 IA%/g. It also gave a biodistribution ([4]; pancreas, 240 min) of 0.33±0.05 IA%/g, a biodistribution ([4]; spleen, 5 min) of 4.90±2.28 IA%/g and a biodistribution ([4]; spleen, 15 min) of 2.62±0.53 IA%/g. For the same substance, the biodistribution ([4]; spleen, 30 min) was 2.08±0.51 IA%/g, the biodistribution ([4]; spleen, 60 min) was 1.26±0.12 IA%/g and the biodistribution ([4]; spleen, 120 min) was 0.56±0.30 IA%/g.
